According to article PMC7612757 (Science (New York, N.Y.), 2022):
Like-named read-outs stand apart in the source and are kept apart here.

T1: CENP-I (human, UniProt Q92674 1-756)
T1 sequence: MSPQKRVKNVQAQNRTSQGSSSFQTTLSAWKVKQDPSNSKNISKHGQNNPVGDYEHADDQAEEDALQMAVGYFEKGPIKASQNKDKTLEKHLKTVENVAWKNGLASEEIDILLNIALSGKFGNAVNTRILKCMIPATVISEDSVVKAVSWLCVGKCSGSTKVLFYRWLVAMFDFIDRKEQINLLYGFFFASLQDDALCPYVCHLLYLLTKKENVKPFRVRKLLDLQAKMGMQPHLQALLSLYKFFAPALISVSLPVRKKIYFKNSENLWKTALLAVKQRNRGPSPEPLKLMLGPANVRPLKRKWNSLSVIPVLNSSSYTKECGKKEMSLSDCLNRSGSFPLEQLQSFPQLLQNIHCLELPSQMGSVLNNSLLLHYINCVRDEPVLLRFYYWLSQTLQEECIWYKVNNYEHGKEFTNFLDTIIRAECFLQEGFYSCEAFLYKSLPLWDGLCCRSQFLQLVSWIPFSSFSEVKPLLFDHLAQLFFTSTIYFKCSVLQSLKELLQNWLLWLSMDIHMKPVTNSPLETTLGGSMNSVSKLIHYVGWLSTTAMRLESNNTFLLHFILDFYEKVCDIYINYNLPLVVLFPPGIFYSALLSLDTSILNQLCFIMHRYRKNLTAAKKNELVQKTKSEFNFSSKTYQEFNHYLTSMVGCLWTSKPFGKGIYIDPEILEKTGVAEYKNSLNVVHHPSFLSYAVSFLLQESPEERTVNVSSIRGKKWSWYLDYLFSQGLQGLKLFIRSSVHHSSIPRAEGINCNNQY

T2: CENP-L (human, UniProt Q8N0S6 1-344)
T2 sequence: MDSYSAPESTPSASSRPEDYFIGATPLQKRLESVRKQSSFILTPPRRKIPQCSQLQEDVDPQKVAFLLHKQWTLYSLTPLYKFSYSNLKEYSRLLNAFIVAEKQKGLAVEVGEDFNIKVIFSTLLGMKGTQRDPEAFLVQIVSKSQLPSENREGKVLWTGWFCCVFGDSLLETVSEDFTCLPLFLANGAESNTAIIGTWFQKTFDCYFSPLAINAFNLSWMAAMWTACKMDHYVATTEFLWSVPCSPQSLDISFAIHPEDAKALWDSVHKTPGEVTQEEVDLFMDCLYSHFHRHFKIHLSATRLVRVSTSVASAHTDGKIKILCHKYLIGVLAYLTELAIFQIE

B1: CENP-W (natural protein)
chain: MALSTIVSQRKQIKRKAPRGFLKRVFKRKKPQLRLEKSGDLLVHLNCLLFVHRLAEESRTNACASKCRVINKEHVLAAAKVILKKSRG
B2: CENP-O (natural protein)
chain: MEQANPLRPDGESKGGVLAHLERLETQVSRSRKQSEELQSVQAQEGALGTKIHKLRRLRDELRAVVRHRRASVKACIANVEPNQTVEINEQEALEEKLENVKAILQAYHFTGLSGKLTSRGVCVCISTAFEGNLLDSYFVDLVIQKPLRIHHHSVPVFIPLEEIAAKYLQTNIQHFLFSLCEYLNAYSGRKYQADRLQSDFAALLTGPLQRNPLCNLLSFTYKLDPGGQSFPFCARLLYKDLTATLPTDVTVTCQGVEVLSTSWEEQRASHETLFCTKPLHQVFASFTRKGEKLDMSLVS
B3: CENP-H (natural protein)
chain: MEEQPQMQDADEPADSGGEGRAGGPPQVAGAQAACSEDRMTLLLRLRAQTKQQLLEYKSMVDASEEKTPEQIMQEKQIEAKIEDLENEIEEVKVAFEIKKLALDRMRLSTALKKNLEKISRQSSVLMDNMKHLLELNKLIMKSQQESWDLEEKLLDIRKKRLQLKQASESKLLEIQTEKNKQKIDLDSMENSERIKIIRQNLQMEIKITTVIQHVFQNLILGSKVNWAEDPALKEIVLQLEKNVDMM
B4: CENP-K (natural protein)
chain: MNQEDLDPDSTTDVGDVTNTEEELIRECEEMWKDMEECQNKLSLIGTETLTDSNAQLSLLIMQVKCLTAELSQWQKKTPETIPLTEDVLITLGKEEFQKLRQDLEMVLSTKESKNEKLKEDLEREQRWLDEQQQIMESLNVLHSELKNKVETFSESRIFNELKTKMLNIKEYKEKLLSTLGEFLEDHFPLPDRSVKKKKKNIQESSVNLITLHEMLEILINRLFDVPHDPYVKISDSFWPPYVELLLRNGIALRHPEDPTRIRLEAFHQ
B5: CENP-M (natural protein)
chain: MSVLRPLDKLPGLNTATILLVGTEDALLQQLADSMLKEDCASELKVHLAKSLPLPSSVNRPRIDLIVFVVNLHSKYSLQNTEESLRHVDASFFLGKVCFLATGAGRESHCSIHRHTVVKLAHTYQSPLLYCDLEVEGFRATMAQRLVRVLQICAGHVPGVSALNLLSLLRSSEGPSLEDL

What was measured:
Assay in all cases: cryo-EM structure
CENP-N [1] = target: T3, CENP-N (human, UniProt Q96H22)
CENP-I = target: T1, CENP-I
CENP-K = target: B4
CENP-O = target: B2
CENP-N [2] = target: T3, CENP-N; remark: listed apart in the source
CENP-L = target: T2, CENP-L

| binding result (CENP-I) | binding result (CENP-K) | Binder | also measured |
| --- | --- | --- | --- |
|  |  | B1 | binding result (CENP-N [1]): binds |
| binds |  | B2 |  |
|  | binds | B3 |  |
|  |  | B4 | binding result (CENP-O): binds |
| binds | binds | B5 | binding result (CENP-N [2]): binds; binding result (CENP-L): binds |
